Data reported in patent US20210179666A1, “CYCLIC PEPTIDES AND METHODS OF USE THEREOF” (Regents of the University of Minnesota, priority 2019, published 2021).

Chains of the proteins cited; added tags and fusions are not shown.
UniProt P56450, whole entry: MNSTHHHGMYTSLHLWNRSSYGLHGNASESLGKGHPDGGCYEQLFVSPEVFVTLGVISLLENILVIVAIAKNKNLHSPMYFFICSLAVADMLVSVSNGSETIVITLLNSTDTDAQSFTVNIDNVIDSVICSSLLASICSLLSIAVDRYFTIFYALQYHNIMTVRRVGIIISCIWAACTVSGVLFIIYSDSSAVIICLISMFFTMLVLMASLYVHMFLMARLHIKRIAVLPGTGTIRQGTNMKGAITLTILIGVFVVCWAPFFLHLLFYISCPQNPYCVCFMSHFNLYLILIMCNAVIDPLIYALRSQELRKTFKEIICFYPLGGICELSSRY

Target: mMC4R (Mus musculus, UniProt P56450)
Details: Example 1; antagonist, Schild analysis with NDP-MSH; ± SEM; <5.0 = no antagonist potency up to 10,000 nM

CC(C)[C@@H]1NC(=O)[C@H](CN)NC(=O)[C@H](Cc2ccccc2)NC(=O)[C@H](Cc2ccccc2)NC(=O)[C@H](CCCNC(=N)N)NC(=O)[C@@H]2CCCN2C(=O)[C@H]2CCCN2C(=O)[C@H](Cc2ccccc2)NC1=O [ZMK 2-85, c[Pro-Arg-Phe-Phe-Dap-Val-Phe-DPro]]
mMC4R pA2: 7.5 ± 0.1
